# According to ChEMBL document CHEMBL1126929, “Syntheses of 2,5- and 2,6-difluoronorepinephrine, 2,5-difluoroepinephrine, and 2,6-difluorophenylephrine: effect of disubstitution with fluorine on adrenergic activity” (J Med Chem, 1993):
# Sequences of proteins named here, by UniProt entry; tags and fusion partners are left off. A change or cut given only in a name is not applied to a line headed by its entry.
# UniProt P15823: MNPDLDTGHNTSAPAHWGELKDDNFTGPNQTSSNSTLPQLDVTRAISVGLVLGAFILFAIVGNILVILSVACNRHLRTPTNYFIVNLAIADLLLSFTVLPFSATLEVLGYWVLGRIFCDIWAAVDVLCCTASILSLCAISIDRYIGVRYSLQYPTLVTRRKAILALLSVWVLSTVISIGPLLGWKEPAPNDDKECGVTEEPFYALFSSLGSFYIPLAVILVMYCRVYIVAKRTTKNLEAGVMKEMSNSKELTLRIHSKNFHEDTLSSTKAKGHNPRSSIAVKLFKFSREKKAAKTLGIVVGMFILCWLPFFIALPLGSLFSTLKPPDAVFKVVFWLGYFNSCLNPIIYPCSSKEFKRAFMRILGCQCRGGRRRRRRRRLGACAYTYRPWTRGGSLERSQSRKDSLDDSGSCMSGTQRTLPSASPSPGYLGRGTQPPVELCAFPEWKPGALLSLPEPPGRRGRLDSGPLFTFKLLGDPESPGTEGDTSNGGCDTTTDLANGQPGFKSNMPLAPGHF
# UniProt P23944: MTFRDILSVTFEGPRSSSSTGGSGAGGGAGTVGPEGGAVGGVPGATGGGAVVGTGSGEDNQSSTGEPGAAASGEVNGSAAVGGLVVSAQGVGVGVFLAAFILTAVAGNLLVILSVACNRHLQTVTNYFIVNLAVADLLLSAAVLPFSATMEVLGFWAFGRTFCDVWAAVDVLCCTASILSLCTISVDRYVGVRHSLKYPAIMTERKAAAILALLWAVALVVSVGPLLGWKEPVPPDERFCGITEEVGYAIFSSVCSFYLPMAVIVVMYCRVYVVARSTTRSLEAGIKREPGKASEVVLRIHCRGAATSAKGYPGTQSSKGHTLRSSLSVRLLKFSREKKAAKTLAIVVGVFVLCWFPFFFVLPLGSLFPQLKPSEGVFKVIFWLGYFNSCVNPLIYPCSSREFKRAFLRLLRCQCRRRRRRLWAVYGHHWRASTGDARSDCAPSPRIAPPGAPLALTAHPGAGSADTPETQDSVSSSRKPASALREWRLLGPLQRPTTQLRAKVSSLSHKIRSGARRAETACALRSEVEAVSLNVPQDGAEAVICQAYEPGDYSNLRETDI
# UniProt P43140: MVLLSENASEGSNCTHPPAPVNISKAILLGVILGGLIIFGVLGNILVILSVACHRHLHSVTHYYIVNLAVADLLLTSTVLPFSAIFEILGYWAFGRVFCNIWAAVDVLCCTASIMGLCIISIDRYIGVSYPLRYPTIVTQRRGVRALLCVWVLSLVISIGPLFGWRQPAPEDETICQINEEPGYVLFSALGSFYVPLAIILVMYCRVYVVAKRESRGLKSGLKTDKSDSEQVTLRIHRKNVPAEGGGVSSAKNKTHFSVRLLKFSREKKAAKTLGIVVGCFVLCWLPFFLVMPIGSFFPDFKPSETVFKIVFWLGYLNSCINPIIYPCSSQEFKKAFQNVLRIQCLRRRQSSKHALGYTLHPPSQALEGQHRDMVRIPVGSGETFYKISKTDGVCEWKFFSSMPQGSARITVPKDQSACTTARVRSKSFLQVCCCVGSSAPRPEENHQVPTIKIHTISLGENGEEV
# Biological target: Adrenergic receptor alpha-1 (Rattus norvegicus, UniProt P15823+P23944+P43140)
# Assay: Displacement of [3H]WB-4101 from adrenergic alpha 1 receptor of rat cerebral cortical membranes
# Format: cell membranes, Membrane
smiles,measurement,value
CNC[C@H](O)c1ccc(O)c(O)c1 [EPINEPHRINE],Ki,2400 nM
